Data published in US9464084B2, “P2X7 modulators” (Janssen Pharmaceutica NV, priority 2013, dated 2016).
pIC50, pKi: −log10 of the molar value.

Protein sequences, listed by entry. Tags and fused reporters are not part of them. Lines headed by an entry give the natural chain unless they say otherwise; changes in a name come on top.
UniProt Q99572: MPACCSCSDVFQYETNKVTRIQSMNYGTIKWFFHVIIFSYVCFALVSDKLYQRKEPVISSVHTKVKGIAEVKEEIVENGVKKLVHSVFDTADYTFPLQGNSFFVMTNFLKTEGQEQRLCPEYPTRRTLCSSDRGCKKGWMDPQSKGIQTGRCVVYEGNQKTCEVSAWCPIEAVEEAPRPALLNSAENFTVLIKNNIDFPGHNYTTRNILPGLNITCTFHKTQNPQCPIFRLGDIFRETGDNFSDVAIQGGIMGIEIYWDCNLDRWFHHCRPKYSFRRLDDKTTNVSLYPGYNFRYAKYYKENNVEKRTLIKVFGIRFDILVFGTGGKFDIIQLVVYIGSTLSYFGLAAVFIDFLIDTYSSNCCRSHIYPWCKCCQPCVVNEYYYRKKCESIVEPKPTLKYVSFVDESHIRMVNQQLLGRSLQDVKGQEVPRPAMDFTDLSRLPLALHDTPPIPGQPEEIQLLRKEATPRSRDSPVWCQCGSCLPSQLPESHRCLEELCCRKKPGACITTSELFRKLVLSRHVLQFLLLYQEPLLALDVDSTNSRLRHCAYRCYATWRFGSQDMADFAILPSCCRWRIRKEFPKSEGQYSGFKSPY

Key:
[1] = target: T1, P2X7 (Homo sapiens (Human), UniProt Q99572); test: Ca2+ flux (FLIPR) in 1321N1 cells expressing recombinant human P2X7 channel; assay type: cell-based; settings: 250 μM BzATP;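 also: Calcium-4 dye-loaded cells exposed to compound for 30 min before agonist addition, fluorescence change read 180 s after agonist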
[2] = target: T1, P2X7; test: Radioligand binding, tritiated A-804598, human P2X7-1321N1 cell membranes; settings: 1 hour at 4° C.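 Also: ki obtained from the binding IC50 after correction for tracer concentration and tracer affinity.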

Compound | pIC50 [1] | pKi [2]
C[C@@H]1c2ncn(-c3ccccn3)c2CCN1C(=O)c1cccc(C(F)(F)F)c1F (single isomer, unassigned) [Example 42, (4R*)-5-{[2-Fluoro-3-(trifluoromethyl)phenyl]carbonyl}-4-methyl-1-pyridin-2-yl-4,5,6,7-tetrahydro-1H-imidazo[4,5-c]pyridine] | 7.25 | 7.40
C[C@H]1c2nnn(-c3ncccn3)c2CCN1C(=O)c1cccc(C(F)(F)F)c1Cl (single isomer, unassigned) [Example 87, (4S*)-5-{[2-Chloro-3-(trifluoromethyl)phenyl]carbonyl}-4-methyl-1-pyrimidin-2-yl-4,5,6,7-tetrahydro-1H-[1,2,3]triazolo[4,5-c]pyridine] | 5.60 | 5.90
C[C@H]1c2nnn(-c3ccn(CCF)n3)c2CCN1C(=O)c1cccc(C(F)(F)F)c1Cl (single isomer, unassigned) [Example 172, (S*)-(2-Chloro-3-(trifluoromethyl)phenyl)(1-(1-(2-fluoroethyl)-1H-pyrazol-3-yl)-4-methyl-6,7-dihydro-1H-[1,2,3]triazolo[4,5-c]pyridin-5(4H)-yl)methanone] | 7.93 | 7.50
Cc1c(C(=O)N2CCc3c(nnn3-c3ncccn3)[C@H]2C)cccc1C(F)(F)F (single isomer, unassigned) [Example 188, (R*)-(4-methyl-1-(pyrimidin-2-yl)-6,7-dihydro-1H-[1,2,3]triazolo[4,5-c]pyridin-5(4H)-yl)(2-methyl-3-(trifluoromethyl)phenyl)methanone] | 8.57 | 8.10
C[C@H]1c2ncn(-c3ccccn3)c2CCN1C(=O)c1cccc(Cl)c1Cl (single isomer, unassigned) [Example 191, (S*)-(2,3-Dichlorophenyl)(4-methyl-1-(pyridin-2-yl)-6,7-dihydro-1H-imidazo[4,5-c]pyridin-5(4H)-yl)methanone] | 7.91 | 7.60
C[C@@H]1Cc2c(nnn2-c2cc(F)ccn2)CN1C(=O)c1cccc(Cl)c1Cl (single isomer, unassigned) [Example 195, (6R*)-5-[(2,3-Dichlorophenyl)carbonyl]-1-(4-fluoropyridin-2-yl)-6-methyl-4,5,6,7-tetrahydro-1H-[1,2,3]triazolo[4,5-c]pyridine] | 8.47 | 8.00
C[C@H]1Cc2c(nnn2-c2cc(F)ccn2)CN1C(=O)c1cccc(Cl)c1Cl (single isomer, unassigned) [Example 196, (6S*)-5-[(2,3-Dichlorophenyl)carbonyl]-1-(4-fluoropyridin-2-yl)-6-methyl-4,5,6,7-tetrahydro-1H-[1,2,3]triazolo[4,5-c]pyridine] | 6.41 | 6.30
C[C@@H]1c2n[nH]c(-c3ncc(F)cn3)c2CCN1C(=O)c1cccc(C(F)(F)F)c1Cl (single isomer, unassigned) [Example 223, (R*)-(2-chloro-3-(trifluoromethyl)phenyl)(3-(5-fluoropyrimidin-2-yl)-7-methyl-4,5-dihydro-2H-pyrazolo[3,4-c]pyridin-6(7H)-yl)methanone] | 7.60 | 7.35
Cc1ccc(-n2nnc3c2CCN(C(=O)c2cccc(C(F)(F)F)c2Cl)[C@@H]3C)nc1 (single isomer, unassigned) [Example 255, (R*)-(2-chloro-3-(trifluoromethyl)phenyl)(4-methyl-1-(5-methylpyridin-2-yl)-6,7-dihydro-1H-[1,2,3]triazolo[4,5-c]pyridin-5(4H)-yl)methanone] | 7.80 | 7.14
Cc1nc(-n2nnc3c2CCN(C(=O)c2cccc(C(F)(F)F)c2Cl)[C@@H]3C)ncc1F (single isomer, unassigned) [Example 305, (R*)-(2-chloro-3-(trifluoromethyl)phenyl)(1-(5-fluoro-4-methylpyrimidin-2-yl)-4-methyl-6,7-dihydro-1H-[1,2,3]triazolo[4,5-c]pyridin-5(4H)-yl)methanone] | 7.81 | 7.34
CC1c2ncn(-c3cnccn3)c2CCN1C(=O)c1cccc(C(F)(F)F)c1F (centres unmarked) [Example 14, (2-Fluoro-3-(trifluoromethyl)phenyl)(4-methyl-1-(pyrazin-2-yl)-6,7-dihydro-1H-imidazo[4,5-c]pyridin-5(4H)-yl)methanone] | 7.08 | 7.10
CC1c2ncn(-c3ccccn3)c2CCN1C(=O)c1cccc(C(F)(F)F)c1F (centres unmarked) [Example 19, (2-Fluoro-3-(trifluoromethyl)phenyl)(4-methyl-1-(pyridin-2-yl)-6,7-dihydro-1H-imidazo[4,5-c]pyridin-5(4H)-yl)methanone] | 7.45 | 7.00
O=C(c1cccc(C(F)(F)F)c1Cl)N1CCc2c(nnn2-c2ncccn2)C1 [Example 65, 5-{[2-Chloro-3-(trifluoromethyl)phenyl]carbonyl}-1-pyrimidin-2-yl-4,5,6,7-tetrahydro-1H-[1,2,3]triazolo[4,5-c]pyridine] | 8.20 | 7.80
O=C(c1cccc(C(F)(F)F)c1Cl)N1C=Cc2c(nnn2-c2cnccn2)C1c1ccccc1 (centres unmarked) [Example 76, 5-{[2-Chloro-3-(trifluoromethyl)phenyl]carbonyl}-4-phenyl-1-pyrazin-2-yl-4,5-dihydro-1H-[1,2,3]triazolo[4,5-c]pyridine] | 7.61 | 6.44
CC1c2nnn(-c3ncccn3)c2CCN1C(=O)c1cccc(C(F)(F)F)c1Cl (centres unmarked) [Example 80, 5-{[2-Chloro-3-(trifluoromethyl)phenyl]carbonyl}-4-methyl-1-pyrimidin-2-yl-4,5,6,7-tetrahydro-1H-[1,2,3]triazolo[4,5-c]pyridine] | 7.68 | 7.40
CC1c2nnn(-c3ncccc3F)c2CCN1C(=O)c1cccc(C(F)(F)F)c1Cl (centres unmarked) [Example 84, 5-{[2-Chloro-3-(trifluoromethyl)phenyl]carbonyl}-1-(3-fluoropyridin-2-yl)-4-methyl-4,5,6,7-tetrahydro-1H-[1,2,3]triazolo[4,5-c]pyridine] | 7.75 | 7.40
Cn1nc2c(c1-c1cccnc1)CCN(C(=O)c1cccc(C(F)(F)F)c1Cl)C2 [Example 107, 6-{[2-Chloro-3-(trifluoromethyl)phenyl]carbonyl}-2-methyl-3-pyridin-3-yl-4,5,6,7-tetrahydro-2H-pyrazolo[3,4-c]pyridine] | 7.80 | 7.10
Cn1nc2c(c1-c1cccnc1)CCN(C(=O)c1cccc(Cl)c1Cl)C2 [Example 111, 6-[(2,3-Dichlorophenyl)carbonyl]-2-methyl-3-pyridin-3-yl-4,5,6,7-tetrahydro-2H-pyrazolo[3,4-c]pyridine] | 6.80 | 7.10
CC1Cc2c(nnn2-c2ccccn2)CN1C(=O)c1cccc(Cl)c1Cl (centres unmarked) [Example 120, 5-[(2,3-Dichlorophenyl)carbonyl]-6-methyl-1-pyridin-2-yl-4,5,6,7-tetrahydro-1H-[1,2,3]triazolo[4,5-c]pyridine] | 8.23 | 8.20
COc1ccnc(-n2nnc3c2CCN(C(=O)c2cccc(C(F)(F)F)c2Cl)C3)c1 [Example 136, (2-Chloro-3-(trifluoromethyl)phenyl)(1-(4-methoxypyridin-2-yl)-6,7-dihydro-1H-[1,2,3]triazolo[4,5-c]pyridin-5(4H)-yl)methanone] | 8.03 | 7.80
CC1Cc2c(nnn2-c2cc(F)ccn2)CN1C(=O)c1cccc(Cl)c1Cl (centres unmarked) [Example 173, 5-[(2,3-Dichlorophenyl)carbonyl]-1-(4-fluoropyridin-2-yl)-6-methyl-4,5,6,7-tetrahydro-1H-[1,2,3]triazolo[4,5-c]pyridine] | 8.05 | 7.80
CC1Cc2c(nnn2-c2cc[nH]n2)CN1C(=O)c1cccc(C(F)(F)F)c1Cl (centres unmarked) [Example 210, (2-chloro-3-(trifluoromethyl)phenyl)(6-methyl-1-(1H-pyrazol-3-yl)-6,7-dihydro-1H-[1,2,3]triazolo[4,5-c]pyridin-5(4H)-yl)methanone] | 7.99 | 8.30
CC1Cc2c(nnn2-c2ncc(F)cn2)CN1C(=O)c1ccc(F)c(Cl)c1Cl (centres unmarked) [Example 213, 5-[(2,3-Dichloro-4-fluorophenyl)carbonyl]-1-(5-fluoropyrimidin-2-yl)-6-methyl-4,5,6,7-tetrahydro-1H-[1,2,3]triazolo[4,5-c]pyridine] | 7.88 | 7.60
Cc1nc(-n2nnc3c2CCN(C(=O)c2cccc(C(F)(F)F)c2Cl)C3C)ncc1F (centres unmarked) [Example 230, (2-chloro-3-(trifluoromethyl)phenyl)(1-(5-fluoro-4-methylpyrimidin-2-yl)-4-methyl-6,7-dihydro-1H-[1,2,3]triazolo[4,5-c]pyridin-5(4H)-yl)methanone] | 7.86 | 7.23
CC1CN(C(=O)c2cccc(C(F)(F)F)c2Cl)C(C)c2nnn(-c3ccccc3)c21 (centres unmarked) [Example 241, (2-Chloro-3-(trifluoromethyl)phenyl)(4,7-dimethyl-1-phenyl-6,7-dihydro-1H-[1,2,3]triazolo[4,5-c]pyridin-5(4H)-yl)methanone] | 5.59 | 5.70
CCc1cccnc1-n1nnc2c1CCN(C(=O)c1cccc(C(F)(F)F)c1Cl)C2C (centres unmarked) [Example 254, (2-Chloro-3-(trifluoromethyl)phenyl)(1-(3-ethylpyridin-2-yl)-4-methyl-6,7-dihydro-1H-[1,2,3]triazolo[4,5-c]pyridin-5(4H)-yl)methanone] | 7.65 | 7.35
CC1c2ncn(-c3ccc(F)cn3)c2CCN1C(=O)c1cccc(C(F)(F)F)c1F (centres unmarked) [Example 262, (2-fluoro-3-(trifluoromethyl)phenyl)(1-(5-fluoropyridin-2-yl)-4-methyl-6,7-dihydro-1H-imidazo[4,5-c]pyridin-5(4H)-yl)methanone] | 6.89 | 7.40
Cc1ccnc(-n2nnc3c2CCN(C(=O)c2cccc(C(F)(F)F)c2F)C3C)n1 (centres unmarked) [Example 269, (2-fluoro-3-(trifluoromethyl)phenyl)(4-methyl-1-(4-methylpyrimidin-2-yl)-6,7-dihydro-1H-[1,2,3]triazolo[4,5-c]pyridin-5(4H)-yl)methanone] | 7.88 | 7.70
